The results in this text go back to patent publication US9271977B2, “Sanglifehrin derivatives and methods for their production” (NeuroVive Pharmaceutical AB, priority 2010, dated 2016).

The test system of this assay is HCV genotype 1b I389Iuc-ubi-neo/NS3-3′/5.1 replicon in Huh5.2 cells. It is filed as cell-based, Hepatitis C Virus. To be noted: Huh5.2 replicon assay. On the procedure: Antiviral efficacy against genotype 1 HCV may be tested as follows: One day before addition of the test article, Huh5.2 cells, containing the HCV genotype 1b I389Iuc-ubi-neo/NS3-3′/5.1 replicon (Vrolijk et al., 2003) and subcultured in cell growth medium [DMEM (Cat No. 41965039) supplemented with 10% FCS, 1% non-essential amino acids (11140035), 1% penicillin/streptomycin (15140148) and 2% Geneticin (10131027); Invitrogen] at a ratio of 1.3-1.4 and grown for 3-4 days in […] tissue culture flasks (Techno Plastic Products), were harvested and seeded in assay medium (DMEM, 10% FCS, 1% non-essential amino acids, 1% penicillin/streptomycin) at a density of 6500 cells/well (100 uL/well) in 96-well tissue culture microtitre plates (Falcon, Beckton Dickinson for evaluation of the anti-metabolic effect and CulturPlate, Perkin Elmer for evaluation of antiviral effect). […]
For the evaluation of antiviral effects, assay medium is aspirated and the cell monolayers are washed with PBS. […] Subsequently, 50 uL of Luciferase Assay System (Cat. No. E1501, Promega) is added and the luciferase luminescence signal is quantified immediately (1000 ms integration time/well, Safire^2, Tecan). Relative luminescence units are converted to percentage of untreated controls.
The selectivity index (SI), indicative of the therapeutic window of the compound, is calculated as CC50/EC50. […]

Consider `CC[C@H]1C[C@H](C)[C@@]2(NC1=O)O[C@@H](C[C@H](O)[C@@H](C)CC/C=C/C=C(\C)[C@@H]1C/C=C/C=C/[C@H](O)[C@H](C)[C@@H](O)[C@@H](CCC(C)=O)C(=O)N[C@@H](C(C)C)C(=O)N[C@@H](Cc3ccccc3)C(=O)N3CCCC(N3)C(=O)O1)[C@H](C)[C@H](O)[C@@H]2C` (stereo partly shown) [Compound 18, 61-Deshydroxy Sanglifehrin A], for which the “Selectivity index (CC50/EC50)” value stood at 3.5.
